The numbers were not newly measured in patent publication US20050124645A1, “Methods and compositions for increasing CD4lymphocyte immune responsiveness” (priority 1998, published 2005), which cites them from elsewhere.

The conditions of the data set: DePaoli et al. 1997; cited from earlier work.

Consider “IL-2: cytokine which binds to receptors on T cells having γc; recombinant, R&D Systems”, for which the side effects result is “systemic toxic side effects”.
